## Yeast mating assay B: variants of the scFv Ab-14

Source: Li et al. 2023 (doi:10.1038/s41467-023-39022-2), MIT Lincoln Laboratory and A-Alpha Bio; data file from the FLAb repository.

Target: peptide PDVDLGDISGINAS, taken from heptad repeat 2 (HR2) of SARS-CoV-2 spike.

Ab-14 is the parent antibody, in scFv form: VH, then three GGGGS repeats, then VL. The heavy chain is unchanged in all variants.
VH: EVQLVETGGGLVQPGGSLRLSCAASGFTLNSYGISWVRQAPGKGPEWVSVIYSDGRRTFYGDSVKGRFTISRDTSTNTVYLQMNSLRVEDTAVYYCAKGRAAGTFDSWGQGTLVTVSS
VL: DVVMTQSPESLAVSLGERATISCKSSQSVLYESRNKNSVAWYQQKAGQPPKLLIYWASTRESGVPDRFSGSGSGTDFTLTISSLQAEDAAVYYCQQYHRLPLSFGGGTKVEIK

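Phage display of a naive human antibody library on the peptide gave the parent. The variants were designed computationally from a first round of random CDR variants and then made and measured. Their group label is 14L_En_Gen (En: ensemble of fine-tuned language models; Gen: genetic algorithm). AlphaSeq pools MATa yeast showing the antibodies with MATalpha yeast showing the peptide. Mating (16 h, 30 °C) was followed by selection of diploids and sequencing of their barcodes. Each replicate has its own calibration line, from reference interactions of the BCL2 family. The assay was run in six technical replicates.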

The parent's light chain CDRs are KSSQSVLYESRNKNSVA, WASTRES, QQYHRLPLS; each variant's own CDRs replace them letter for letter. Values are log10 of the apparent Kd in nM; lower means stronger binding. The mean shown is taken over the replicates in which the pair was detected. Where no diploid with the target was found in that replicate, the entry reads "ND": below detection, most likely a poor binder, though not proof of it. Nonspecific signal, from three strains lacking the peptide, appeared in 4% of pairings of all light chain designs, centred on 2.64 (5% of these signals below 1.59); values are not corrected for it. The control count says in how many pairings with the empty strains this scFv gave a signal, with their mean in brackets. The range of this assay differs from that of the first round, and the authors advise against merging the two. The authors' rule: three or more of the six replicates give a measured affinity, fewer mean a poor binder. Of ten entries with the parent sequence, four were seen in most replicates (averages 0.34 to 2.37), three in one and three in none, so single entries are noisy.

| # | CDR-L1 | CDR-L2 | CDR-L3 | log10 Kd, replicates | log10 Kd (nM), mean | empty controls |
|---|---|---|---|---|---|---|
| 1 | TLYGLSMSMSKEKNNVA | EMSTREN | QQYDRLPLI | 1.12 / 1.31 / 0.69 / 0.72 / 0.62 / 0.65 | 0.85 | 0/18 |
| 2 | MMSQVTGSGQRHRNNVA | QTSTREP | QQYDRLPLI | 1.24 / 0.65 / 0.44 / 0.80 / 0.69 / 0.87 | 0.78 | 1/18 (1.60) |
| 3 | KLSVSYGILEVERNSVA | QNSTREE | QQYDRLPLS | 1.73 / ND / ND / ND / ND / ND | 1.73 | 1/18 (2.18) |
| 4 | KLTSVTGTEKVRGNNVA | EMETREE | QQYNRLPLS | ND / 0.60 / 0.29 / 0.95 / 0.04 / 0.57 | 0.49 | 0/18 |
| 5 | MVSQLMLWGLHAKNSIA | EAVTRCN | QQYDRLPLF | 0.86 / ND / 1.23 / 2.43 / ND / ND | 1.51 | 0/18 |
| 6 | TISDVMGHMSRAHNNVA | DMDTRGE | QQYNRLPLS | -0.10 / -0.09 / -0.18 / -0.34 / -0.23 / 0.05 | -0.15 | 1/18 (2.18) |
| 7 | KLSMMLHVTGVNKNNVA | ELTMRGN | QQYHRLPLM | ND / ND / ND / ND / ND / ND | ND | 0/18 |
| 8 | KLTMITGTEKVIGNNVA | EMETREN | QQYNRLPLS | 0.43 / 0.51 / 0.30 / 0.29 / 0.27 / 0.76 | 0.43 | 0/18 |
| 9 | TVTQMAMTGMMSKRSVA | NAETRES | QQYHRLPLI | 2.07 / 1.82 / 1.81 / 2.33 / 2.32 / 1.80 | 2.03 | 0/18 |
| 10 | MISQLMNMGQFAINSVA | QAQTRNE | QQYDRLPLI | 2.06 / 2.51 / ND / 1.47 / 2.62 / ND | 2.16 | 0/18 |
| 11 | KIGQQLNQLMHQKNNVA | DLVMREK | QQYHRLPLS | 0.85 / 0.19 / 0.05 / 0.27 / 0.13 / 0.31 | 0.30 | 0/18 |
| 12 | MISQILNMGSFAINSVA | QASLRNE | QQYDRLPLT | ND / ND / ND / ND / ND / ND | ND | 0/18 |
| 13 | KISQMVRVGSTHSSSIA | EEQTRAK | QQYHRLPLS | ND / ND / -0.25 / ND / ND / ND | -0.25 | 0/18 |
| 14 | MISNVMNTLTREGNNVA | DLEERER | QQYFRLPLS | 1.37 / 1.25 / 1.29 / 1.78 / 1.98 / 1.63 | 1.55 | 1/18 (2.97) |
| 15 | IVSQLMLWGHLAKNSIA | EAQTRVN | QQYDRLPLI | ND / 2.33 / ND / 2.40 / 2.31 / ND | 2.35 | 0/18 |
| 16 | MISQLYNMGQFAINSVA | QAQTRNE | QQYDRLPLM | ND / 2.05 / ND / 1.00 / 1.06 / 1.31 | 1.36 | 0/18 |
| 17 | KISSMVRVGSTHSNSIA | EEAKRAD | QQYHRLPLA | 1.78 / 1.75 / 1.34 / 1.21 / 1.25 / 1.25 | 1.43 | 2/18 (3.83) |
| 18 | KFSQTVNSMSVSKSAVA | EMSTRPE | QQYNRLPLS | 0.88 / 0.66 / 0.52 / 0.83 / 0.97 / 1.04 | 0.82 | 5/18 (2.49) |
| 19 | KLSSFTGTEKVHGNNVA | EMETRER | QQYNRLPLA | 0.92 / 0.47 / 0.49 / 0.42 / 0.30 / 0.47 | 0.51 | 0/18 |
| 20 | MLSMVTEGMVRKHDAVA | DNSTRED | QQYDRLPLS | 1.17 / 0.56 / 0.89 / 0.96 / 0.79 / 0.83 | 0.87 | 2/18 (3.01) |
| 21 | MISQLMNMGQFAINSVA | QASLRCN | QQYFRLPLE | 1.25 / 1.67 / 1.49 / 1.38 / ND / 1.93 | 1.54 | 1/18 (1.41) |
| 22 | KLNMLTGLETKNRNSVA | QMTTREE | QQYNHLPLS | -0.01 / -0.22 / -0.17 / -0.12 / -0.06 / 0.15 | -0.07 | 0/18 |
| 23 | KITATMRFEQKNSNNIA | EVSMRTK | QQYYRLPLS | -0.32 / 0.07 / 0.20 / -0.11 / 0.05 / -0.02 | -0.02 | 0/18 |
| 24 | SLGLSTMLEEYVRNSVA | NNSTRED | QQYDRLPLS | ND / ND / 2.06 / 2.01 / ND / ND | 2.03 | 2/18 (2.00) |
| 25 | IVSQLMLWGLHAKNSIA | EASARLN | QQYDRLPLF | ND / ND / ND / ND / ND / ND | ND | 0/18 |
| 26 | SISGFMKSLAAHHNSVA | DMTNRES | QQYDRLPLS | 0.25 / 0.13 / 0.46 / 0.18 / 0.18 / 0.25 | 0.24 | 0/18 |
| 27 | KIYGYQGMHTRQANSIA | DNTTREN | QQYHRLPLS | 0.45 / 1.59 / 0.76 / 0.99 / 1.63 / 0.29 | 0.95 | 0/18 |
| 28 | IVSQLMLWGYHAKNSIA | EAETRIN | QQYERLPLF | ND / ND / 0.71 / ND / ND / ND | 0.71 | 0/18 |
| 29 | HITYGMMVHGRHSKSIA | QAEERAK | QQYDRLPLI | 1.67 / 1.28 / 0.99 / 1.17 / 1.65 / 1.30 | 1.34 | 0/18 |
| 30 | KISQMVRVGSTHKNSIA | EEATRAD | QQYHRLPLA | 0.49 / 0.61 / 0.25 / 0.15 / 0.46 / 0.60 | 0.43 | 1/18 (2.72) |
| 31 | KLSQVTGHLSVEKNNVA | EMETREN | QQYDRLPLS | 1.76 / 0.99 / 1.35 / 1.52 / 3.55 / ND | 1.84 | 0/18 |
| 32 | KISMTSENQLKQRNSVA | ELVTRLN | QQYNRLPLS | 0.70 / 0.83 / 0.88 / 0.75 / 1.08 / 0.94 | 0.86 | 0/18 |
| 33 | TISQLTSSFSQNINNVA | EVSTRLN | QQYDRLPLS | ND / 0.88 / 0.40 / 0.79 / 1.82 / 1.01 | 0.98 | 0/18 |
| 34 | MMSSLMGYESRNIQNVA | QTSTREE | QQYDRLPLI | 0.47 / 0.21 / 0.24 / 0.27 / 0.32 / 0.27 | 0.30 | 0/18 |
| 35 | MLSQMWALGMKVSNSVA | QATMRFN | QQYYRLPLI | ND / ND / ND / ND / ND / ND | ND | 0/18 |
| 36 | TLYGLTNSMTKNKDNVA | EMSTREL | QQYDRLPLM | 0.98 / ND / 1.31 / 1.03 / 1.80 / 1.53 | 1.33 | 0/18 |
| 37 | KLRSVTGTEKVKGNNVA | EMETRER | QQYNRLPLS | 0.36 / -0.04 / 0.12 / -0.10 / -0.10 / 0.31 | 0.09 | 0/18 |
| 38 | MIGEMLYQGAYKRNSVA | QANLRED | QHYHRLPLE | 0.50 / 0.05 / 0.66 / 2.09 / -0.17 / 1.15 | 0.71 | 0/18 |
| 39 | KVSEFMKGLMARTDSIA | DNVTRNN | QQYDRLPLS | 2.30 / 2.38 / 1.48 / 1.99 / 3.00 / 1.62 | 2.13 | 0/18 |
| 40 | KLSMITGHQLMQKNNVA | EMVTREN | QQYNRLPLS | 0.18 / -0.36 / -0.18 / -0.43 / -0.27 / 0.19 | -0.15 | 0/18 |
| 41 | QISMMMNLSMHGTNNVA | QMETREK | QQYDRLPLS | 2.80 / 1.34 / 2.13 / 2.75 / 2.86 / ND | 2.38 | 0/18 |
| 42 | TLYGLSNSMSINKDSVA | EMTTREE | QQYDRLPLA | ND / ND / ND / ND / ND / 2.61 | 2.61 | 3/18 (1.98) |
| 43 | KISQITGHLSVSKNNVA | EMETREN | QQYDRLPLS | 0.67 / 0.81 / 0.92 / 0.77 / 0.50 / 0.86 | 0.75 | 0/18 |
| 44 | KIGMTLNQLMRKKNNVA | DLVEREK | QQYFRLPLS | 1.20 / 0.96 / 1.00 / 1.44 / 1.38 / 1.20 | 1.20 | 0/18 |
| 45 | HMSALTMLGMHQRNSVA | QMTTREN | QQYDRLPLA | 1.28 / 0.91 / 1.41 / 0.36 / 0.72 / 0.94 | 0.94 | 4/18 (3.11) |
| 46 | MISGFMKSSMAHMNSVA | DMTNRED | QQYDRLPLS | 0.60 / 0.19 / 0.38 / 0.28 / 0.35 / 0.72 | 0.42 | 1/18 (2.52) |
| 47 | HITLGMYVAGRHSHSIA | QAETREK | QQYDRLPLI | ND / ND / 1.75 / ND / 1.11 / ND | 1.43 | 0/18 |

Excerpt, the final 7 entries:

| CDR-L1 | CDR-L2 | CDR-L3 | log10 Kd, replicates | log10 Kd (nM), mean | empty controls |
|---|---|---|---|---|---|
| QISMMMNLSMHGTNNVA | QMETREK | QQYDRLPLS | 2.80 / 1.34 / 2.13 / 2.75 / 2.86 / ND | 2.38 | 0/18 |
| TLYGLSNSMSINKDSVA | EMTTREE | QQYDRLPLA | ND / ND / ND / ND / ND / 2.61 | 2.61 | 3/18 (1.98) |
| KISQITGHLSVSKNNVA | EMETREN | QQYDRLPLS | 0.67 / 0.81 / 0.92 / 0.77 / 0.50 / 0.86 | 0.75 | 0/18 |
| KIGMTLNQLMRKKNNVA | DLVEREK | QQYFRLPLS | 1.20 / 0.96 / 1.00 / 1.44 / 1.38 / 1.20 | 1.20 | 0/18 |
| HMSALTMLGMHQRNSVA | QMTTREN | QQYDRLPLA | 1.28 / 0.91 / 1.41 / 0.36 / 0.72 / 0.94 | 0.94 | 4/18 (3.11) |
| MISGFMKSSMAHMNSVA | DMTNRED | QQYDRLPLS | 0.60 / 0.19 / 0.38 / 0.28 / 0.35 / 0.72 | 0.42 | 1/18 (2.52) |
| HITLGMYVAGRHSHSIA | QAETREK | QQYDRLPLI | ND / ND / 1.75 / ND / 1.11 / ND | 1.43 | 0/18 |